Only a part is listed here, and it is no random draw. Some of these compounds have results that are not shown, active ones among them. The source made the active and inactive calls. The call rests on the fitted dose curve; in most records, active means well fitted activation curve with a large enough effect; inconclusive means small, poorly fitted or top-dose-only effect; inactive means no such curve, though single readings can be large or run the other way.

By UniProt entry, the sequences of proteins in these tests, tags left out.
UniProt P54803, whole entry G286D: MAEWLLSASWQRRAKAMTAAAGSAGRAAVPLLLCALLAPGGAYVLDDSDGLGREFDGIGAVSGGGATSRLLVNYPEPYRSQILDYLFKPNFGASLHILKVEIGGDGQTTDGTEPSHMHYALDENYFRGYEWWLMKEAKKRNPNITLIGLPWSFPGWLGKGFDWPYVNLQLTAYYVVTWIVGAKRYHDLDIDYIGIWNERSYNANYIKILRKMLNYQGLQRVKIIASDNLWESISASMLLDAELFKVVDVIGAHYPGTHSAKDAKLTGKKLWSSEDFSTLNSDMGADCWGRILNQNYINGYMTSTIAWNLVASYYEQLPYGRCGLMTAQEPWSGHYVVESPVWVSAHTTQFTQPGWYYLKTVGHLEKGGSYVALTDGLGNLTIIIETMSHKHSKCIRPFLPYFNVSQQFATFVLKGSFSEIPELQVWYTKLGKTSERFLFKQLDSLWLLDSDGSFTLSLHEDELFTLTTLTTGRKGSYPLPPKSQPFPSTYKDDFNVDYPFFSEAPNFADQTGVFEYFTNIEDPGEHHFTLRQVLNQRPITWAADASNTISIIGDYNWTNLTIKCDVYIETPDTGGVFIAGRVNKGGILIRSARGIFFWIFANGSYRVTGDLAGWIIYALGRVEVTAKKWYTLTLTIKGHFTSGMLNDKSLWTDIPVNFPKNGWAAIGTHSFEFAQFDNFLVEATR

This assay addresses Galactocerebrosidase (Homo sapiens) (UniProt P54803). Put plainly: A Novel Cell-Based Assay to Identify Small Molecules for B -Galactocerebrosidase. Further: 0% is about no effect; nearly all actives have a fitted effect of over 65% in size. Particulars: 145M-Twi-hGALC-G270D cells (Twitcher mouse brain line with human GALC G270D), HMU-beta-Gal fluorescence, 48 h; at 57.5 µM (top of the series).
As for `COc1ccc(C(=O)NCC2(N(C)C)CCCCC2)cc1Cl`, the activation was inactive: -5.55%.
On to `COc1cccc(C(=O)NCC2(N3CCOCC3)CCCCC2)c1`, for which the activation is inactive: -4.93%.
Then `CC(C)COc1ccc(C(=O)NCC2(N(C)C)CCCCC2)cc1`, with inactive: 21.4%; and `Cc1cccc(C(=O)NCC2(N(C)C)CCCCC2)c1`, with inactive: -18.7%; and `COc1cc(C(=O)NCC2(N(C)C)CCCCC2)cc(OC)c1OC`, with inactive: -12.4%.
Consider `CC(C)Oc1ccc(C(=O)NCC2(N(C)C)CCCCC2)cc1`, for which the activation is inactive: -9.2%.
Then `CN(C)C1(CNC(=O)c2cccc(Cl)c2)CCCCC1`, with inactive: -9.79%; and `CN(C)C1(CNC(=O)c2ccccc2F)CCCCC1`, with inactive: -15.6%; and `CN(C)C1(CNC(=O)c2ccccc2[N+](=O)[O-])CCCCC1`, with inactive: -7%.
Turning to `CCCCOc1ccccc1C(=O)NCC1(N(C)C)CCCCC1`, the activation was inactive: 18.1%.
In the case of `CCOc1cccc(C(=O)NCC2(N(C)C)CCCCC2)c1`, the activation was inactive: -7.67%.

These data come from PubChem BioAssay AID1159614 (National Center for Advancing Translational Sciences (NCATS), 2016).
